This passage reports Kb and Ki results from US8173695B2, “Kappa selective opioid receptor antagonist” (Eli Lilly and Company, priority 2008, dated 2012).

Amino acid sequences for entries named in this document (tags omitted). A change or cut given only in a name is not applied to a line headed by its entry.
UniProt P35372, whole entry: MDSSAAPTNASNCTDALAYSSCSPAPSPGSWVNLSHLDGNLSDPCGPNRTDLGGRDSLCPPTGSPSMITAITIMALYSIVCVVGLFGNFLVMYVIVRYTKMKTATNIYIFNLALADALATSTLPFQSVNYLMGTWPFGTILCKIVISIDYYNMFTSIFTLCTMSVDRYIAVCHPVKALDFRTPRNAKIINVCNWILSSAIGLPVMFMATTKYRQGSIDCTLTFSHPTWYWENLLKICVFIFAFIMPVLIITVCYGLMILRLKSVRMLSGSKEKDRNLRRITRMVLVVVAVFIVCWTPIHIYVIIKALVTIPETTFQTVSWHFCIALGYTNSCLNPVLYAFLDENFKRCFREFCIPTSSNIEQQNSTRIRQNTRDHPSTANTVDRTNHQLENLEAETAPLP
UniProt P41145: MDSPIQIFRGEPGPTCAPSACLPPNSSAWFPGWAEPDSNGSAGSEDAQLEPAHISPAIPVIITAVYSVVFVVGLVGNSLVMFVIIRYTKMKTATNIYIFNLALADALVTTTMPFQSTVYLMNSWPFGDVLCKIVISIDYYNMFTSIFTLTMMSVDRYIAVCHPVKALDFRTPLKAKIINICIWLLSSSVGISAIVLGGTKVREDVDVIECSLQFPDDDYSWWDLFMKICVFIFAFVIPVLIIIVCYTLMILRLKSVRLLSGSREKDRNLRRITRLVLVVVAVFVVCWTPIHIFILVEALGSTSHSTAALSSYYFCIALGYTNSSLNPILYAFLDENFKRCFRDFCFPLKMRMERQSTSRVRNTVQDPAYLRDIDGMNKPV
UniProt P41143, whole entry: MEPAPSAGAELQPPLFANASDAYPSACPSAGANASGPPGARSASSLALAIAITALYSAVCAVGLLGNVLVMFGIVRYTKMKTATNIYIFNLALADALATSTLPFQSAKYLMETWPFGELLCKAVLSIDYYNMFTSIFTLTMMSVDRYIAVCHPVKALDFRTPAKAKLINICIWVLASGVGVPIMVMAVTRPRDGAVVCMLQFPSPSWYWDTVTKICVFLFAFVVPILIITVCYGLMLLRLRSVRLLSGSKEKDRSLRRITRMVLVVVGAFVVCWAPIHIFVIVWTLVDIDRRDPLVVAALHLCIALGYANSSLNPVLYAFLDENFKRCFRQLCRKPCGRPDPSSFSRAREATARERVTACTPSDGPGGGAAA

What is called Kb is the equilibrium dissociation constant of an antagonist, usually derived from a functional assay. Read a high Kb as a less potent antagonist. What is called Ki is a dissociation constant, usually derived from enzyme kinetics or from competition with a known ligand.

The structures appear in SMILES notation.

The target of assay [1] is mu-opioid receptor (MOR), hMu (Homo sapiens, UniProt P35372). Kind of assay: GTP-γ-S binding assay, opioid receptor in vitro antagonism (vs DAMGO 1 micromolar). In kind it is biochemical. Conditions: geometric mean (SEM, n).
For assay [2], the target named is kappa-opioid receptor (KOR), hKappa (Homo sapiens, UniProt P41145). Kind of assay: GTP-γ-S binding assay, opioid receptor in vitro antagonism (vs U69593 300 nM). Conditions: geometric mean (SEM, n). In kind it is biochemical.
Assay [3] has as its target delta-opioid receptor (DOR), hDelta (Homo sapiens, UniProt P41143). Kind of assay: GTP-γ-S binding assay, opioid receptor in vitro antagonism (vs DPDPE 30 nM). The settings on record: geometric mean (SEM, n). The format is biochemical.
Assay [4] addresses Kappa opioid receptor (Homo sapiens, UniProt P41145). In kind it is binding. The settings on record: geometric mean (SEM, n).
Assay [5] concerns the target Mu opioid receptor (Homo sapiens, UniProt P35372). Kind of assay: biochemical.
Assay [6] concerns the target Delta opioid receptor (Homo sapiens, UniProt P41143). Kind of assay: biochemical.

On to `Cc1cc(C)cc([C@@H]2CCCN2Cc2ccc(Oc3ccc(C(N)=O)cc3F)cc2)c1` (single isomer, unassigned) [Example 1A], for which the Kb in assay [1] came to 40.1 nM; in assay [2], 2.12 nM; in assay [3], 264 nM. Besides, the Ki in assay [4] was 0.597 nM; in assay [5], 16.4 nM; in assay [6] it was 122 nM.

In the case of `Cc1cc(C)cc([C@@H]2CCCN2Cc2ccc(Oc3ccc(C(N)=O)cc3F)cc2)c1` (single isomer, unassigned) [Example 1B, 4-{4-[2-(3,5-Dimethyl-phenyl)-pyrrolidin-1-ylmethyl]-phenoxy}-3-fluoro-benzamide], the antagonist dissociation constant (Kb) in assay [1] was 69.6 nM; in assay [3] it was 220 nM. In assay [4], the Ki is 13.9 nM.

As to `Cc1cc(C)cc(C2CCCN2Cc2ccc(Oc3ccc(C(N)=O)cc3F)cc2)c1` (racemic) [Example 1, 4-{4-[2-(3,5-Dimethyl-phenyl)-pyrrolidin-1-ylmethyl]-phenoxy}-3-fluoro-benzamide], the Kb worked out at 56.7 nM in assay [1], 5.43 nM in assay [2] and 293 nM in assay [3]. Further, the Ki was found to be 0.225 nM in assay [4], 12 nM in assay [5] and 170 nM in assay [6].
